According to patent US11413255B2, “Multifunctional cytoprotectant for treatment of pathogenic processes mediated by oxidative stress and toxic electrophiles” (Montefiore Medical Center, priority 2015, dated 2022):

Tested on: isolated hepatocytes exposed to graded APAP
Experiment: Isolated hepatocytes, fixed protectant and graded APAP concentrations
Type: cell-based, mouse
Conditions: 1.0 mM protectant

## Oc1cc(O)cc(O)c1 [PG, 1,3,5-trihydroxybenzene]
  toxicity measures (ALT appearance, mitochondrial membrane potential): near-normal
